Tested on: CRISPR-associated adenosine deaminase 1 (Cad1)
Experiment: ITC; co-crystal structure at […] Å (also cryo-EM of full-length hexamer with ATP, 9C77)

## Nc1ncnc2c1ncn2[C@@H]1O[C@@H]2COP(=O)(O)O[C@H]3[C@@H](O)[C@H](n4cnc5c(N)ncnc54)O[C@@H]3COP(=O)(O)O[C@H]3[C@@H](O)[C@H](n4cnc5c(N)ncnc54)O[C@@H]3COP(=O)(O)O[C@H]3[C@@H](O)[C@H](n4cnc5c(N)ncnc54)O[C@@H]3COP(=O)(O)O[C@H]2[C@H]1O
  Kd: 735 nM

— PMC11645235 (Cell, 2024)
